This experiment concerns the target His-PPARγ LBD (Homo sapiens, UniProt P37231). In kind it is biochemical. As to conditions: TRAP220 coactivator peptide; no covalent antagonist.

By UniProt entry, the sequences of proteins in these tests, tags left out. Residues count along the entry.
UniProt P37231, 231-505: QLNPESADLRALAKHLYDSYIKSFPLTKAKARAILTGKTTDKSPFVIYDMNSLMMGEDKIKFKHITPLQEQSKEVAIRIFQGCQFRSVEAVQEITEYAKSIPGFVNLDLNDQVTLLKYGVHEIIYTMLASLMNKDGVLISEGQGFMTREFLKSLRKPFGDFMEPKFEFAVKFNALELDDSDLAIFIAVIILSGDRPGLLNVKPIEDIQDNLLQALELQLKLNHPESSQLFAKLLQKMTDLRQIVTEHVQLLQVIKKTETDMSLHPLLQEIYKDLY

Consider `CN(CCOc1ccc(CC2SC(=O)NC2=O)cc1)c1ccccn1` (stereo not shown) [rosiglitazone], for which the “TRAP220 recruitment on titration into apo/ligand-free PPARγ LBD” value was “concentration dependent increase in TRAP220 recruitment”.
